This passage reports IC50 results from patent US10183009B2, “Therapeutic compounds and uses thereof” (GENENTECH, INC., priority 2014, dated 2019).

As usually defined, the IC50 is the point on the concentration scale where inhibition reaches its midpoint.

The assay addresses BRD4(BD1) (Homo sapiens (Human), UniProt O60885). The assay can be described thus: BRD4 AlphaLisa Binding Assay. (In Alpha technology, singlet oxygen from a donor bead excites a nearby acceptor bead.)

In the case of `C/C=C/Cn1cc(-c2cc(F)cc(C(N)=O)c2)c2cc[nH]c2c1=O` [Example 22, 3-[6-[(E)-but-2-enyl]-7-oxo-1H-pyrrolo[2,3-c]pyridin-4-yl]-5-fluoro-benzamide], the IC50 worked out at 3000 nM.
Take `C/C=C/Cn1cc(-c2cccc(C(=O)NC(C)C)c2)c2cc[nH]c2c1=O` [Example 35, 3-[6-[(E)-but-2-enyl]-7-oxo-1H-pyrrolo[2,3-c]pyridin-4-yl]-N-isopropyl-benzamide]: the IC50 was 720 nM.
